Measurements: PubChem BioAssay AID687022 (Broad Institute, 2013)

Chains of the proteins cited; added tags and fusions are not shown.
UniProt Q9HCT0, whole entry: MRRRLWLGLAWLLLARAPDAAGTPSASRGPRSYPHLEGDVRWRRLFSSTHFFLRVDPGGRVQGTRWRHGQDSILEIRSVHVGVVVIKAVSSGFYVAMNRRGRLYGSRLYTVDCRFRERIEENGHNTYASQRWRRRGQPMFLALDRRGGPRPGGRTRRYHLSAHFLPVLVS

Biological target: Fibroblast growth factor 22 (Homo sapiens) (UniProt Q9HCT0)
Assay: FGF22 ligand-induced thermal stabilization – biophysical, thermal shift, cherry-pick, FGF22 synaptogenesis inhibitor project, dose response (AID 687022)
Conditions: recombinant FGF22 thermal shift, SYPRO orange melting

Compound: CCN(CC)CCCNc1ccccc1[N+](=O)[O-].O=[N+]([O-])c1cc([N+](=O)[O-])c(O)c([N+](=O)[O-])c1
- AC50: 9.02 µM

Compound: CN(Cc1cccnc1)C(=O)COc1ccc(Cl)c(Cl)c1.O=[N+]([O-])c1cc([N+](=O)[O-])c(O)c([N+](=O)[O-])c1
- AC50: 7.16 µM
